Data on 46 compounds can be found in PubChem BioAssay AID2016 (NMMLSC, 2009).

SMILES strings stand for the structures. This is a selection; strong and weak results do not stand in their true shares. The source made the active and inactive calls.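 How the source made its calls: active means GFP response versus DMSO above a set limit, roughly screen mean plus 3 SD (cut at about 180% in these data); inconclusive means fewer than 70 cells counted for a yeast strain; inactive means the rest.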

This test in a line: TOR pathway GLN3 branch reporter MEP2-GFP changes – S. cerevisiae, multiplex flow cytometry, MLPCN library, primary screen (AID 2016).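 Further: median GFP fluorescence of the barcode-gated MEP2-GFP cells per well.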 As to conditions: S. cerevisiae MEP2-GFP strain, 3 h, at 10 µM, hits give high values, 100% = DMSO control level. (In general: Flow cytometry measures light scatter and fluorescence of single cells or particles in a stream.)
With `Cc1cccc(OCC(=O)OC2CN3CCC2CC3)c1` (stereo unspecified), the GFP response vs DMSO was inactive: 93.5%. In the case of `O=C(OC1CN2CCC1CC2)c1ccc(Cl)cc1` (stereo unspecified), the GFP response vs DMSO is inactive: 90.9%. Take `COc1cc(C(=O)NCC2(N3CCOCC3)CCCCC2)cc(Cl)c1OC(C)C`: the GFP response vs DMSO is inactive: 102%. Turning to `O=[As](O)(O)c1cccnc1`, the GFP response vs DMSO is inactive: 100%. As for `CS(=O)(=O)c1ccc(Cl)c(NC(=O)COC(=O)C(O)(c2ccccc2)c2ccccc2)c1`, the figure is inactive: 104%.

As to `N#CCCN(C(=O)COC(=O)C(O)(c1ccccc1)c1ccccc1)c1ccc(F)cc1`, the GFP response vs DMSO is inactive: 95.4%. For the compound `CCOP1(=S)c2c(C)nn(CCC#N)c2N=C(c2ccc(F)cc2)N1C` (stereo unspecified), the GFP response vs DMSO was inactive: 97.3%. `CN(C(=O)Cc1ccccc1)[C@@H]1CC[C@]2(CCCO2)C[C@H]1N1CCCC1`: the GFP response vs DMSO is inactive: 96.7%. For the compound `CN(C)C(=O)c1cc([N+](=O)[O-])cc2c1-c1c(cc([N+](=O)[O-])cc1[N+](=O)[O-])C2=O`, the GFP response vs DMSO was inactive: 83.8%. `O=[N+]([O-])c1ccc2c(c1)nnn2O`: the GFP response vs DMSO is inactive: 106%. As for `CN(C(=O)Cc1ccc(Cl)c(Cl)c1)[C@H]1CC[C@@]2(CCCO2)C[C@@H]1N1CCCC1`, the figure is inactive: 96.1%. As for `NC(=O)Nc1ccc([As](=O)(O)O)cc1`, the figure is inactive: 88.8%; as for `Nc1ccccc1[As](=O)(O)c1ccccc1`, inactive: 93.5%; as for `O=C(O)COc1ccc([As](=O)(O)O)cc1[N+](=O)[O-]`, inactive: 130%. As for `CCOP1(=S)c2c(C)nn(CCC#N)c2N=C(c2ccccc2F)N1C` (stereo unspecified), the figure is inactive: 101%. Take `O=P(Nc1nccs1)(c1ccccc1)c1nc2ccccc2s1` (stereo unspecified): the GFP response vs DMSO is inactive: 98.8%.

Turning to `O=P(Nc1nccs1)(Oc1ccccc1)Oc1ccccc1`, the GFP response vs DMSO is inactive: 99.4%. In the case of `CS(=O)(=O)c1cc([N+](=O)[O-])c2no[n+]([O-])c2c1`, the GFP response vs DMSO was inactive: 102%. As for `CCN(CC)C(=S)SC(NC=O)C(Cl)(Cl)Cl` (stereo unspecified), the figure is inactive: 105%. For `CC(C)NC(=O)NP(=O)(Oc1ccccc1)Oc1ccccc1`, the GFP response vs DMSO is inactive: 94.7%. As to `O=[N+]([O-])c1cc([N+](=O)[O-])c(-c2ccn[nH]2)s1`, the GFP response vs DMSO was inactive: 85.8%. For the compound `ClCCSc1nnc(-c2cccnc2)o1`, the GFP response vs DMSO was inactive: 98.6%. Turning to `CC(C)c1ccc(OP(=O)(Nc2ccccn2)Oc2ccccc2F)cc1` (stereo unspecified), the GFP response vs DMSO is inactive: 94.2%. On to `Cc1ccc(OP(=O)(Nc2ccc([N+](=O)[O-])cn2)Oc2ccc(C)cc2)cc1`, for which the GFP response vs DMSO is inactive: 108%. On to `Cc1ccc2nc3c(c(C)c2c1)CC(C(Cl)Cl)S3` (stereo unspecified), for which the GFP response vs DMSO was inactive: 103%. As for `O=[As](O)(c1ccc(O)cc1)c1ccccc1O`, the figure is inactive: 94.7%. As for `C[As](=O)(O)c1cccc(C(=O)O)c1`, the figure is inactive: 102%; as for `COc1cc(C(=O)NCC2(N3CCOCC3)CCCCC2)ccc1OCC(C)C`, inactive: 104%; as for `COc1ccc(N/C(=N/P(=O)(N2CCOCC2)N2CCOCC2)N2CCOCC2)cc1`, inactive: 96.2%.

For `COc1ccc2nc(NP(=O)(c3ccccc3)c3ccccc3)sc2c1`, the GFP response vs DMSO was inactive: 96.3%.

Consider `COc1cc(I)ccc1[As](=O)(O)O`, for which the GFP response vs DMSO is inactive: 101%. With `Cc1c2c(nc3ccccc13)SC(C(Cl)Cl)C2` (stereo unspecified), the GFP response vs DMSO was inactive: 102%. As for `O=C(OC1CN2CCC1CC2)C12CC3CC(CC(C3)C1)C2` (stereo unspecified), the figure is inactive: 108%; as for `Cc1cc(=O)[nH]c(N[N+](=O)[O-])n1`, inactive: 102%. `CCC(C)N(CC(C)C)C(=S)SC(NC(C)=O)C(Cl)(Cl)Cl` (stereo unspecified): the GFP response vs DMSO is inactive: 93.9%.

In the case of `O=C(OC1CN2CCC1CC2)c1cccc([N+](=O)[O-])c1` (stereo unspecified), the GFP response vs DMSO was inactive: 105%. As for `CCOC(=O)c1ccc(NC(=O)C(C)(CCl)SC)cc1` (stereo unspecified), the figure is inactive: 97.7%; as for `O=C(COc1ccccc1)OC1CN2CCC1CC2` (stereo unspecified), inactive: 89.8%; as for `O=C(Nc1ccncc1[N+](=O)[O-])c1ccc([N+](=O)[O-])cc1[N+](=O)[O-]`, inactive: 96.8%. As for `COP1(=S)c2c(C)nn(CCC#N)c2N=C(c2ccc(F)cc2)N1C` (stereo unspecified), the figure is inactive: 107%. For `O=P(Nc1ccccn1)(c1cccc2ccccc12)c1cccc2ccccc12`, the GFP response vs DMSO was inactive: 96.6%. As for `Cc1cc(SC(NC=O)C(Cl)(Cl)Cl)ncn1` (stereo unspecified), the figure is inactive: 97.5%. As for `O=[N+]([O-])c1ccc(Nc2ccc(Oc3ccc([N+](=O)[O-])cc3[N+](=O)[O-])cc2)c([N+](=O)[O-])c1`, the figure is inactive: 106%; as for `CCOC(=O)Nc1cccc([As](=O)(O)O)c1`, inactive: 98.8%.

For the compound `Cc1cc(SC(NC(=O)c2ccccc2)C(Cl)(Cl)Cl)nc(C(C)C)n1` (stereo unspecified), the GFP response vs DMSO is inactive: 99.5%. Turning to `CCOC(=O)Nc1ccc([As](=O)(O)O)c(O)c1`, the GFP response vs DMSO is inactive: 106%.
